The assay deals with MS patients. Nature of the assay: Treatment of individual MS patients with the medication (case reports, Patients A, B, C). The class given is in vivo, human. An excerpt:
Patient A was a person, who was diagnosed with MS 14 months previously based on an MRI of their brain and a lumbar puncture. They presented with gait difficulties, muscle spasms in the lower extremities, and short term memory dysfunction.
Patient B was a person, who was diagnosed 9 months previously with MS following an MRI of their brain and a lumbar puncture. Patient B experienced neuralgia pain in their left upper extremities at an 8-9 on a 10 point scale, and numbness in their left torso. […] Patient B was given a twice daily tablet of the medication comprising 2 mg naltrexone hydrochloride, 0.5 mg clonazepam, 100 μg vitamin B12 as cyanocobalamin, 20 mg vitamin B6, and 10 mg coenzyme Q. After six weeks, the pain in Patient B's left extremity had reduced to 1-3 on a 10 point scale, and their numbness had been eliminated.
Patient C was a person, who had had MS for seven years. Diagnosis was confirmed by an MRI of their brain, lumbar puncture, and visual evolved response. Patient C experienced numbness on their right side, severe fatigue, generalized muscle spasms, and neuralgia pain of 5-6 on a 10 point scale. […]

B1: Avonex: a standard MS medication, given by injection (protein, UniProt P01574 22-187, looked up)
Interferon beta: MSYNLLGFLQRSSNFQCQKLLWQLNGRLEYCLKDRMNFDIPEEIKQLQQFQKEDAALTIYEMLQNIFAIFRQDSSSTGWNETIVENLLANVYHQINHLKTVLEEKLEKEDFTRGKLMSSLHLKRYYGRILHYLKAKEYSHCAWTIVRVEILRNFYFINRLTGYLRN
In the case of B1, the “improvement under earlier treatment” value is reported as “no improvement” (Patient A, injections of Avonex before the medication) and “minimal improvement” (Patient C, person with MS, treated with Avonex before the medication).
